This is an account of results in patent US20190084939A1, “ANALOGS OF FEXARAMINE AND METHODS OF MAKING AND USING” (Salk Institute for Biological Studies, priority 2014, published 2019).

Protein sequences, listed by entry. Tags and fused reporters are not part of them. Residues count along the entry.
UniProt Q96RI1, 1-476 isoform 1: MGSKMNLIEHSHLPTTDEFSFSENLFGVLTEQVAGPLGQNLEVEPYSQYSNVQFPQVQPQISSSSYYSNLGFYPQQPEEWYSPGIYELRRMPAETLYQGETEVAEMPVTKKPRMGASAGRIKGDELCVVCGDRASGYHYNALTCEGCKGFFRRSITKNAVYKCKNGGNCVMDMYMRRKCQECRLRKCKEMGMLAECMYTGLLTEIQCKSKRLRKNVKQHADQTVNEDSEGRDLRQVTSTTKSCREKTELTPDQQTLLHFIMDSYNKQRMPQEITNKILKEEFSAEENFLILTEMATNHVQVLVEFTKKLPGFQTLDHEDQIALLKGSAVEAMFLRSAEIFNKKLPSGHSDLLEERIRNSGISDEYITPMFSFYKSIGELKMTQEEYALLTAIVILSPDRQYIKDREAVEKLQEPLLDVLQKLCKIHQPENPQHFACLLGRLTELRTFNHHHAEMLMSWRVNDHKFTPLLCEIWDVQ
UniProt P19793, whole entry partner: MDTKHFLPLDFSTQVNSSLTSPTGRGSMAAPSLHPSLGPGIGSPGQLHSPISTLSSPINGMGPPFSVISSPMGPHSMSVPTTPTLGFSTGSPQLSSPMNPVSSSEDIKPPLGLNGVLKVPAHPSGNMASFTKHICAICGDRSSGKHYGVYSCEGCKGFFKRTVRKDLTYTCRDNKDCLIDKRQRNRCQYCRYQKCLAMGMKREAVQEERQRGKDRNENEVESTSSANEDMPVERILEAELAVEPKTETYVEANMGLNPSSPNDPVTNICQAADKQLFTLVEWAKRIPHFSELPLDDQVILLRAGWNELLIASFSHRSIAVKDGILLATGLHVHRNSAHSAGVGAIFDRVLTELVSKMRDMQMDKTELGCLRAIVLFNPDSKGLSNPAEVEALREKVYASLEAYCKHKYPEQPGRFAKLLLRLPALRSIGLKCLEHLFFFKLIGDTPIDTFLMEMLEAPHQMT

The assay deals with Human FXR full length (Homo sapiens, UniProt Q96RI1). Briefly: FXR activity screen, luciferase reporter in transfected CV-1 cells.

As usually defined, the EC50 is the concentration at which the effect is half-maximal.

Where two headings read alike, the source gives them in different places.

For `[2H]C(c1ccc(-c2ccc(N(C)C)cc2)cc1)N(C(=O)[C@@H]1C[C@@H]2CC[C@H]1C2)c1cc(F)cc(/C=C/C(=O)OC)c1` (stereo partly drawn), the half-maximal effective concentration (EC50) by setting is: (read-out: 1st RND EC50, first round, CV-1 cells, 24 hours) 66.8 nM; (read-out: 2nd RND EC50, second round, CV-1 cells, 24 hours) 58.5 nM; (read-out: EC50 (retested), retest) 83 nM.
